Literature values as cited in patent publication US8545903B2 (priority 2009, dated 2013).

Conditions: in vivo; cited from earlier work

For `CC(=O)N[C@H]1[C@H]([C@H](O)[C@H](O)CO)OC(C(=O)O)=C[C@@H]1N=C(N)N` [Zanamivir], the bioavailability is listed as “low bioavailability”.
